Assay results taken from patent US12180176B2, “Fluorinated empathogens” (priority 2021, dated 2024).

Assay: Metabolic stability in human liver microsomes
Assay type: in vitro ADME

CCNC(C)Cc1ccc2c(c1)OCO2 (stereo not drawn)
percent compound remaining (Time 0.0): 100.0% | percent compound remaining (Time 15.00): 97.15% | percent compound remaining (Time 30.00): 88.20% | percent compound remaining (Time 45.00): 84.45% | percent compound remaining (Time 60.00 (one hour of incubation), listed as ASR-1003): 75.55% | percent compound remaining (Time 60.00 (one hour of incubation), listed as MIDEA): 7600%
